From PubChem BioAssay
B2AR arrestin: beta2AR (human) beta-arrestin recruitment activity | P07550 | beta-arrestin recruitment to beta2AR, cell-based reporter | Potency, µM (doses to about 46.1 µM), without a hit: top-dose activation, hits mostly activators | actives 0.02% (n = 330,000) | AID 492947;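 further: potency means the concentration at half of the fitted maximal effect; 0% = DMSO controls and full agonism = EC100 isoproterenol or metaproterenol; nearly all actives have a fitted effect of over 65% in size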
A549 tox-1: counter-screen for Nrf2 inhibitors: cytotoxicity in A549 cells; A549 ARE-Fluc cells, CellTiter-Fluor viability, 18-24 h; Potency, µM (highest dose often 46 µM), for the others: at the highest dose activity change, negative = cytotoxicity, hits mostly inhibitors; actives 0.16% (n = 390,000); further: potency means the concentration at half of the fitted maximal effect; on the % scale 0 is the no-effect control and ±100 the full control effect
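A549 ARE-Fluc cells in 5% FBS OPTI-MEM, 5000 cells/well, rested 2 h then exposed to compounds in concentration-response for 18-24 h at 37 °C. Viability by CellTiter-Fluor fluorescence (Ex 405/Em 525) after 30 min; luciferase luminescence (BugLite, 15 min, RT) read afterwards.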
miR-21 FLuc: miR-21 reporter, rising signal | 340,000 tested, under 10 active | AID 2288 | HeLa miR-21 FLuc reporter, luciferase, 48 h | Potency, µM (titrated, usually from 38.3 µM), for inactives: at the highest dose reporter change, positive = more light; active = well fitted rising curve with a large enough effect; inconclusive = small, poorly fitted or top-dose-only effect; inactive = no such curve, though single readings can be large or run the other way;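 further: % of control where 0% means no effect; miR-21 action dims this reporter so a rising signal means less miR-21 action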
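Using DMEM plus 10% FBS, HeLa miR-21-FLuc cells are incubated with test compounds (final up to about 40uM) for 48 hours; firefly luciferase signal is then imaged following reagent-mediated lysis.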
Nrf2 inh: blocks Nrf2 signaling; A549 ARE-Fluc reporter, luciferase luminescence, 18-24 h; Potency, µM (doses to about 46 µM), inactives show top-dose activity change, negative = inhibition, hits mostly inhibitors; actives 2.1% (n = 360,000); AID 504444; further: potency means the concentration at half of the fitted maximal effect; on the % scale 0 is the no-effect control and ±100 the full control effect; nearly all actives have a fitted effect of over 60% in size
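Two sequential reads on A549 ARE_Fluc cells exposed to compound for 18-24 h: a CellTiter-Fluor fluorescence read for viability, then a luciferase luminescence read for Nrf2/ARE activity.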
Nrf2 activator: activators of Nrf2 (ARE) signaling | AREc32 ARE-luciferase reporter (MCF7-derived line), luminescence, 24 h | Potency, µM (top dose mostly 46.1 µM), without a hit: top-dose activation, usual class: activators | actives 0.31% (n = 410,000) | AID 624171; further: potency means the concentration at half of the fitted maximal effect; % of control where 0% means no effect; nearly all actives have a fitted effect of over 65% in size
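Quantitative high-throughput format: AREc32 reporter cells, 1000 per well, received compound by pin transfer and were incubated 24 hr at 37 deg C, 5% CO2, before Steady-Glo luminescence detection.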
FLuc enzyme inh: firefly luciferase inhibition, Nrf2 hit validation | actives 4% (n = 1,400) | Potency, µM (doses to about 57.5 µM), for inactives: at the top dose activity change, negative = inhibition, hits mostly inhibitors | purified firefly luciferase, luminescence inhibition | shares compounds with Nrf2 inh | AID 720522; further: potency means the concentration at half of the fitted maximal effect; on the % scale 0 is the no-effect control and ±100 the full control effect; nearly all actives have a fitted effect of over 65% in size
A549 tox-2: counter-screen for Nrf2 inhibitors: cytotoxicity in A549 ARE cells; shares compounds with Nrf2 inh; A549 ARE-Fluc cells, cytotoxicity counterscreen; Potency, µM (top dose mostly 46.1 µM), for the others: at the top dose activity change, negative = cytotoxicity, actives largely listed as inhibitors; actives 2% (n = 1,400);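 further: potency means the concentration at half of the fitted maximal effect; cells exposed to compounds for 18 to 24 hours; on the % scale 0 is the no-effect control and ±100 the full control effect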
ARE-Fluc inh: reduces Nrf2 ARE reporter signal in A549 cells; shares compounds with Nrf2 inh; A549 ARE-firefly luciferase reporter, luminescence; Potency, µM (series often up to 46.1 µM), inactives show at the highest dose activity change, negative = inhibition, actives largely listed as inhibitors; actives 74% (n = 1,400); AID 720524; further: potency means the concentration at half of the fitted maximal effect; on the % scale 0 is the no-effect control and ±100 the full control effect; nearly all actives have a fitted effect of over 65% in size
* marks the source's active call; other numbers are inactive results; ? = inconclusive; . = no result shown. Most compounds without a hit are left out; they make up all but 2.2% or so of the library. The call rests on the fitted dose curve; in most records, active means well fitted curve in the direction sought with a large enough effect; inconclusive means small, poorly fitted or top-dose-only effect, or another doubt; inactive means no such curve, though single readings can be large; an effect the other way counts as inactive or inconclusive.

| no. | canonical_smiles | B2AR arrestin | A549 tox-1 | miR-21 FLuc | Nrf2 inh |
| --- | --- | --- | --- | --- | --- |
| 1 | COc1ccc(OC)c(C2=Nn3c(nnc3-c3ccccc3OC)SC2)c1 | . | -2% | . | -4% |
| 2 | CCc1cccc(NC(=O)CN(c2ccc(C)cc2)S(=O)(=O)c2cccs2)c1 | . | 3% | 18% | ? |
| 3 | COc1cccc(/C=N/n2c(N)c(S(=O)(=O)c3cccs3)c3nc4ccccc4nc32)c1OC | 0% | ? | 2% | 3.7µM* |
| 4 | O=C1c2[nH]nc(-c3ccccc3O)c2C(c2cccc(OCc3ccccc3)c2)N1CCCO (centres undefined) | . | -4% | 22% | 10% |
| 5 | O=C(Cn1c(=O)oc2cc(S(=O)(=O)NCc3ccccc3)ccc21)N(CCO)Cc1ccccc1 | . | 1% | 13% | . |
| 6 | Cc1ccc(S(=O)(=O)N2CCc3ccccc3CC2)cc1 | . | -2% | . | 8.2µM* |
| 7 | Cc1ccc(S(=O)(=O)N2CCc3ccccc3C2)cc1 | 0% | 20% | -1% | -23% |
| 8 | CCOC(=O)N1CCN(C(=O)c2ccc(Cn3c(=S)[nH]c4cc5c(cc4c3=O)OCO5)cc2)CC1 | 0% | ? | 0% | 9.2µM* |
| 9 | Cc1cc(C)c(NC(=O)CCn2c(=O)c3cccn3c3ccccc32)c(C)c1 | . | ? | 17% | ? |
| 10 | O=C(Oc1ccccc1N1C(=O)C2CCCCC2C1=O)c1ccccc1F (centres undefined) | 0% | -7% | -12% | -1% |

| no. | Nrf2 activator | FLuc enzyme inh | A549 tox-2 | ARE-Fluc inh |
| --- | --- | --- | --- | --- |
| 1 | . | . | . | . |
| 2 | 1% | . | . | . |
| 3 | 0% | -1% | -13% | . |
| 4 | -1% | . | . | . |
| 5 | 1% | . | . | . |
| 6 | 3% | 3% | -2% | 4.1µM* |
| 7 | 3% | . | . | . |
| 8 | 0% | -22% | -9% | 8.2µM* |
| 9 | 4% | . | . | . |
| 10 | 5% | . | . | . |

Among those listed so far, these contain a carbonyl joined to an NH by a bond outside any ring.
| no. | canonical_smiles | B2AR arrestin | A549 tox-1 | miR-21 FLuc | Nrf2 inh |
| --- | --- | --- | --- | --- | --- |
| 2 | CCc1cccc(NC(=O)CN(c2ccc(C)cc2)S(=O)(=O)c2cccs2)c1 | . | 3% | 18% | ? |
| 9 | Cc1cc(C)c(NC(=O)CCn2c(=O)c3cccn3c3ccccc32)c(C)c1 | . | ? | 17% | ? |

| no. | Nrf2 activator | FLuc enzyme inh | A549 tox-2 | ARE-Fluc inh |
| --- | --- | --- | --- | --- |
| 2 | 1% | . | . | . |
| 9 | 4% | . | . | . |

(continued)
| no. | canonical_smiles | B2AR arrestin | A549 tox-1 | miR-21 FLuc | Nrf2 inh |
| --- | --- | --- | --- | --- | --- |
| 11 | O=C(Oc1ccccc1N1C(=O)C2CCCCC2C1=O)c1ccc(Cl)cc1 (centres undefined) | -1% | -3% | -14% | 4.6µM* |
| 12 | Cc1ccc(S(=O)(=O)Nc2ccc(Cl)cc2C(=O)c2ccccc2)cc1 | 0% | -24% | 1% | 5.8µM* |
| 13 | Cc1ccc(S(=O)(=O)Nc2ccc(Cl)cc2C(=O)c2ccc(F)cc2)cc1 | 0% | -5% | 8% | ? |
| 14 | CCOC(=O)c1c(NC(=O)Cn2c(C)nc3ccccc32)sc2c1CCC2 | 0% | -4% | -3% | 5.8µM* |
| 15 | Cc1ccc2c(c1)C(=O)OC(C(=O)Nc1ccc(C(=O)O)cc1)C2 (centres undefined) | . | -2% | -3% | -4% |
| 16 | CCCNc1nc2c(c(=O)n(C)c(=O)n2C)n1CCC(C)C | -1% | -20% | 14% | 9.2µM* |
| 17 | CCCNc1nc2c(c(=O)n(C)c(=O)n2C)n1Cc1cccc(C)c1 | 0% | -9% | 8% | 6.5µM* |
| 18 | CCCNc1nc2c(c(=O)n(C)c(=O)n2C)n1CCCc1ccccc1 | -1% | 0% | 2% | ? |
| 19 | COc1cccc(Cn2c(NCc3ccco3)nc3c2c(=O)n(C)c(=O)n3C)c1 | 0% | ? | 20% | 8.2µM* |
| 20 | CCCCNc1nc2c(c(=O)n(C)c(=O)n2C)n1CCC | 0% | 0% | -10% | -5% |

| no. | Nrf2 activator | FLuc enzyme inh | A549 tox-2 | ARE-Fluc inh |
| --- | --- | --- | --- | --- |
| 11 | -1% | -1% | -1% | 6.5µM* |
| 12 | 3% | 2% | 10% | -2% |
| 13 | 0% | . | . | . |
| 14 | 0% | 1% | -10% | ? |
| 15 | 0% | . | . | . |
| 16 | 3% | 2% | -5% | ? |
| 17 | 2% | 0% | 2% | 10µM* |
| 18 | -1% | . | . | . |
| 19 | 2% | -1% | -9% | 6.5µM* |
| 20 | 0% | . | . | . |

Next part:
| no. | canonical_smiles | B2AR arrestin | A549 tox-1 | miR-21 FLuc | Nrf2 inh |
| --- | --- | --- | --- | --- | --- |
| 21 | CCCCCCn1c(NCC)nc2c1c(=O)n(C)c(=O)n2C | 0% | -17% | 27% | 3.7µM* |
| 22 | CCCSCCCNC(=O)CN1C(=O)CCn2nc(-c3cn(C)c4ccccc34)cc21 | . | 12% | 0% | . |
| 23 | COc1ccc(C2/C=C\CN(C(=O)C3CC3)C(Cc3ccccc3)C(=O)N2Cc2ccc(F)cc2)cc1 (centres undefined) | . | -15% | . | ? |
| 24 | COc1ccc(OC)c(CNC(=O)CCc2c(C)nc3c(c2C)c(=O)n(C)c(=O)n3C)c1 | . | -6% | -3% | -2% |
| 25 | COc1ccc(OC)c(-c2noc(N3CCN(c4cc(C)ccc4C)CC3)n2)c1 | . | -3% | 3% | 3% |
| 26 | CSc1ccc(/C=N/NC(=O)CNc2cccc3ccccc23)cc1 | 0% | -4% | -7% | -18% |
| 27 | O=C(CNc1cccc2ccccc12)N/N=C/c1ccc[nH]1 | 0% | -8% | 14% | 3.7µM* |
| 28 | Cc1ccc(C(=O)c2oc3ccccc3c2NC(=O)Cc2coc3cc(C)ccc23)cc1 | . | 5% | -4% | -2% |
| 29 | COc1ccc(CNC(=O)c2cccc(S(=O)(=O)N3CCN(c4ccc(F)cc4)CC3)c2)cc1 | 0% | -8% | . | ? |
| 30 | CN(CC(=O)Nc1ccc(F)cc1)C(=O)c1cccc(S(=O)(=O)N2CCN(c3ccccc3)CC2)c1 | 0% | -18% | 14% | ? |

| no. | Nrf2 activator | FLuc enzyme inh | A549 tox-2 | ARE-Fluc inh |
| --- | --- | --- | --- | --- |
| 21 | 1% | 1% | -7% | 5.8µM* |
| 22 | 1% | . | . | . |
| 23 | . | . | . | . |
| 24 | -1% | . | . | . |
| 25 | 0% | . | . | . |
| 26 | 3% | . | . | . |
| 27 | 4% | ? | -18% | 2.9µM* |
| 28 | 0% | . | . | . |
| 29 | 0% | . | . | . |
| 30 | 2% | . | . | . |

Other structures follow.
| no. | canonical_smiles | B2AR arrestin | A549 tox-1 | miR-21 FLuc | Nrf2 inh |
| --- | --- | --- | --- | --- | --- |
| 31 | COc1ccc(NC(=O)CN(C)C(=O)c2cccc(S(=O)(=O)N3CCN(c4ccc(F)cc4)CC3)c2)cc1 | . | ? | . | 5.8µM* |
| 32 | COc1cccc(CNC(=O)c2cccc(S(=O)(=O)N3CCN(c4ccc(F)cc4)CC3)c2)c1 | 0% | 0% | . | ? |
| 33 | COc1ccc(C(NC(C)=O)c2cc(Cl)c3cccnc3c2O)cc1OC (centres undefined) | 0% | -8% | 19% | ? |
| 34 | CCC(=O)NC(c1ccc(OC)c(OC)c1)c1cc(Cl)c2cccnc2c1O (centres undefined) | 0% | ? | ? | 5.8µM* |
| 35 | CCCC(=O)NC(c1ccccc1OC)c1ccc2cccnc2c1O (centres undefined) | ? | ? | ? | 7.3µM* |
| 36 | CCCC(=O)NC(c1cccs1)c1cc(Cl)c2cccnc2c1O (centres undefined) | 0% | -17% | ? | 5.2µM* |
| 37 | O=C(O)CCn1nnc(-c2cccs2)n1 | 3% | 3% | -4% | -16% |
| 38 | CC(C)c1ccc(-c2nnn(CCC(=O)O)n2)cc1 | 0% | -2% | ? | 0.33µM* |

| no. | Nrf2 activator | FLuc enzyme inh | A549 tox-2 | ARE-Fluc inh |
| --- | --- | --- | --- | --- |
| 31 | 0% | 3% | -10% | 18µM* |
| 32 | 2% | 1% | -1% | ? |
| 33 | 0% | . | . | . |
| 34 | 1% | 1% | -20% | 6.5µM* |
| 35 | 5% | 1% | -14% | 9.2µM* |
| 36 | -2% | 1% | -20% | 7.3µM* |
| 37 | 4% | . | . | . |
| 38 | -1% | 11µM* | -3% | 0.82µM* |

Structures listed above printed as active in FLuc enzyme inh.
cpd	canonical_smiles	B2AR arrestin	miR-21 FLuc	Nrf2 activator	FLuc enzyme inh	ARE-Fluc inh
38	CC(C)c1ccc(-c2nnn(CCC(=O)O)n2)cc1	0%	?	-1%	11µM*	0.82µM*
